Results published in ChEMBL document CHEMBL3259558, “Identification of amides derived from 1H-pyrazolo[3,4-b]pyridine-5-carboxylic acid as potent inhibitors of human nicotinamide phosphoribosyltransferase (NAMPT)” (Bioorg Med Chem Lett, 2013).

Protein sequences, listed by entry. Tags and fused reporters are not part of them. Lines headed by an entry give the natural chain unless they say otherwise; changes in a name come on top.
UniProt P43490: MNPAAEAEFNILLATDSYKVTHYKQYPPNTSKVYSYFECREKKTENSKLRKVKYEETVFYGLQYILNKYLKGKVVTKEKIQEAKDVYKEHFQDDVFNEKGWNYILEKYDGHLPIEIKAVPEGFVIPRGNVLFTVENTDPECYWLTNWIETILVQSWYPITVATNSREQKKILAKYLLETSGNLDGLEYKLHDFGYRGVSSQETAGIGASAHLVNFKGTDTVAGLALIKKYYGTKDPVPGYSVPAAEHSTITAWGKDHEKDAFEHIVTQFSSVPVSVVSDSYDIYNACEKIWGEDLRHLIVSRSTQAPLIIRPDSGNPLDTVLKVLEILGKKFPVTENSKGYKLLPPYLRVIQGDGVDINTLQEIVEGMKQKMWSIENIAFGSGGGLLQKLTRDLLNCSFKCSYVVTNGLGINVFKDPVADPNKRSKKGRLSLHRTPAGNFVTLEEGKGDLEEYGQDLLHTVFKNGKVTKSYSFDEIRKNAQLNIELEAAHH

Biological target: Nicotinamide phosphoribosyltransferase (Homo sapiens, UniProt P43490)
Assay: Inhibition of C-terminal His-6-tagged full length human NAMPT expressed in Escherichia coli (DE3) cells after 30 mins by mass spectrometry-based analysis

## O=C(NCc1ccc(S(=O)(=O)N2CCC(N3CCCC3)CC2)cc1)c1cnc2[nH]ncc2c1
  IC50: 300 nM
